The target in the experiment is 5-hydroxytryptamine receptor 6 (Homo sapiens, UniProt P50406). Put plainly: Displacement of [3H]LSD from human 5HT6 receptor expressed in HEK293 cells. The experiment is classed as cell-based.

Protein sequences, listed by entry. Tags and fused reporters are not part of them.
UniProt P50406, whole entry: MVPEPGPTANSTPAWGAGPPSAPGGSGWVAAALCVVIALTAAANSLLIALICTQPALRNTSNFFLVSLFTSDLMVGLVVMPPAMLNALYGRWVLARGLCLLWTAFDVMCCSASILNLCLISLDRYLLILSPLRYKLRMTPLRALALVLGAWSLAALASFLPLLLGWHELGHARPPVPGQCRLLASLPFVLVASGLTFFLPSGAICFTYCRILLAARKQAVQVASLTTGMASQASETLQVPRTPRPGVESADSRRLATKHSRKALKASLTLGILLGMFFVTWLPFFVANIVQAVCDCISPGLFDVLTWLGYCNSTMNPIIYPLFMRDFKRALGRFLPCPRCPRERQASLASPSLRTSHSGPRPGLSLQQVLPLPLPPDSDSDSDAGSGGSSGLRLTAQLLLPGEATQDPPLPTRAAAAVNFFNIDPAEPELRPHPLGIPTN

Each structure is given as a SMILES string.

For orientation: Ki means the dissociation constant of the complex between target and ligand, obtained from inhibition or displacement. High values mean lower affinity, low ones higher affinity. Turning to `COc1ccc2[nH]cc(CCN(C)C)c2c1` [MEBUFOTENIN], the affinity corresponds to a Ki of 13 nM.

Values taken from ChEMBL document CHEMBL1139712, “Interaction of N1-unsubstituted and N1-benzenesulfonyltryptamines at h5-HT6 receptors” (Bioorg Med Chem Lett, 2006).
